Experimental data published in ChEMBL document CHEMBL1140141, “Total synthesis and biological evaluation of the marine bromopyrrole alkaloid dispyrin: elucidation of discrete molecular targets with therapeutic potential” (J Nat Prod, 2008).

Molecular target: Histamine H2 receptor (Cavia porcellus) (UniProt P47747)
Details: Brain, 10 uM

inhibition: 91%
SMILES: CN(C)CCCOc1ccc(CCNC(=O)c2cc(Br)c[nH]2)cc1Br [DISPYRIN]
